The values that follow are results of earlier work, collected in patent US6420428B1, “Treatment and prevention of hepatic disorders” (The Regents of the University of California, priority 1996, dated 2002).

Each structure is given as a SMILES string.

The conditions of this series: BHT in combination with retinyl acetate; cited from earlier work.

On to `Cc1cc(C(C)(C)C)c(O)c(C(C)(C)C)c1` [BHT, 2,6-Bis(1,1-dimethylethyl)-4-methylphenol], for which the hepatic fibrosis entry is given as “potentiated hepatic fibrosis”.
